# Assay results published in PMC8424805, “CGRP outflow into jugular blood and cerebrospinal fluid and permeance for CGRP of rat dura mater” (The Journal of Headache and Pain, 2021).
# Key:
# [1] = cited from earlier work
# Text: Compared to the high CGRP concentration applied onto the dura mater, the increase in CGRP in the jugular plasma and the CSF was very small. This may be due, at least in part, to some important limitations in our experiments. First, the jugular catheter was placed in proximal direction to collect blood from the internal jugular vein. Different to humans and cats, however, this vein is very thin in rat and thus may transport little amounts of blood from intracranial tissues to the cranial vena cava (see Fig. 1A). The main outflow of blood collected in the sinus system is via the anterior ...
# [2] = CGRP concentration in jugular plasma after application of CGRP onto the exposed dura mater in vivo (EIA); conditions: jugular vein catheter, EDTA plasma, rat, mean ± SEM, n = 4-9
# Text: (§1) Animals were anesthetized with 4% isoflurane (Forene, Abott, Wiesbaden, Germany) in a closed box administered with an evaporator system (Vapor 19.3, Dräger, Lübeck, Germany) and continued with 2.5% isoflurane supplied through a tight mask. After tracheotomy the animals were ventilated via a tracheal tube throughout the experiment with 2% isoflurane in oxygen-enriched room air to maintain a constant depth of anesthesia, constant blood pressure and failing motor reflexes upon noxious stimulation. A cannula connected to a pressure transducer was introduced into the exposed right femoral artery and fixed by ligatures. For systemic administration of substances, a venous catheter was inserted into the right femoral vein accordingly. In some experiments a third catheter was inserted into the exposed right external jugular vein and pushed forward close to the bifurcation of the subclavian and the internal jugular vein in order to take blood samples for measuring CGRP levels (Fig. 1A). […] Throughout the experiment vital parameters such as mean blood pressure, body temperature, respiratory rate and expiratory CO2 levels were monitored. The body temperature was recorded with a rectal probe and kept at 37 – 37.5 °C with a feedback-controlled heating plate (TKM 0902, Föhr Medical Instruments, Frankfurt, Germany) on which the animal’s body rested. […]
# [3] = test system: isolated (human) cerebral arteries; conditions: read-out: Half-maximal relaxation effect; cited from earlier work
# Experimental: (§2) In accordance with earlier studies, the high concentration of 10 μM CGRP applied to the dura mater caused only mild increases in meningeal blood flow and no significant increase in cortical flow. There is striking discrepancy compared with the high sensitivity of isolated (human) cerebral arteries to CGRP with a half-maximal relaxation effect of about 0.1-1 nM [57, 58] or vasodilatation by 80% of (rat) meningeal arteries caused by infusion of 1 μg/kg CGRP, which is in the same molar range when calculated for its distribution in the extracellular compartments. Ther ...
# (rat) meningeal arteries = conditions: infusion of 1 μg/kg CGRP; cited from earlier work
# Experimental: as §2
# [4] = test system: meningeal blood flow around the middle meningeal artery; test: Meningeal blood flow, laser Doppler recording after topical CGRP; format: in vivo, rat
# Text: as §1, with “accordingly.” for “accordingly. In some experiments a third catheter was inserted into the exposed right external jugular vein and pushed forward close to the bifurcation of the subclavian and the internal jugular vein in order to take blood samples for measuring CGRP levels (Fig. 1A).”
# (§3) Blood flow was recorded by a laser Doppler system at a sampling rate of 10 Hz (DRT4, Moor Instruments, Axminster, U.K.) with needle type probes (tip diameter 0.8 mm). […] Blood flow was monitored and the experiment started only when the flow was constant, which lasted about 30 min. […]
# [5] = CGRP concentration in cerebrospinal fluid after application of CGRP onto the exposed dura mater in vivo (EIA); parameters: species or system rat
# Text: Animals were anesthetized with 4% isoflurane (Forene, Abott, Wiesbaden, Germany) in a closed box administered with an evaporator system (Vapor 19.3, Dräger, Lübeck, Germany) and continued with 2.5% isoflurane supplied through a tight mask. After tracheotomy the animals were ventilated via a tracheal tube throughout the experiment with 2% isoflurane in oxygen-enriched room air to maintain a constant depth of anesthesia, constant blood pressure and failing motor reflexes upon noxious stimulation. A cannula connected to a pressure transducer was introduced into the exposed right femoral artery and fixed by ligatures. For systemic administration of substances, a venous catheter was inserted into the right femoral vein accordingly. In some experiments a third catheter was inserted into the exposed right external jugular vein and pushed forward close to the bifurcation of the subclavian and the internal jugular vein in order to take blood samples for measuring CGRP levels (Fig. 1A). To prevent salivation and smooth muscle spasms, atropine sulfate (Braun Melsungen AG, Melsungen, Germany, 0.5 mg/mL 1:10 with sodium chloride 0.9%) was subcutaneously injected. Throughout the experiment vital parameters such as mean blood pressure, body temperature, respiratory rate and expiratory CO2 levels were monitored. The body temperature was recorded with a rectal probe and kept at 37 – 37.5 °C with a feedback-controlled heating plate (TKM 0902, Föhr Medical Instruments, Frankfurt, Germany) on which the animal’s body rested. The expiratory CO2 was steady at 4.5-5% by modulating the ventilation frequency between 70 and 100 strokes per minute to suppress spontaneous breathing. An ointment (Bepanthen, Bayer, Leverkusen, Germany) protected the animal’s eyes. At the end of each experiment an overdose of sodium thiopental (Trapanal, Altana, Konstanz, Germany) was i.v. injected followed by exsanguination to terminate the experiment.
# Animals were placed in a stereotactic frame, a snout clamp and ear bars fixed the position of the head. A median incision from the forehead to the neck exposed the skull. The parietal skull was carefully trepanned on both sides using a dental drill (KaVo Dental GmbH, Biberach, Germany) with saline cooling and a fine forceps to remove the innermost layer of the bone without breaching the dura. The exposed dura mater in the cranial windows with a size of about 6 × 4 mm was protected from drying with isotonic saline. In order to gain access to the cisterna magna, in most of the experiments the neck muscles were divided in the midline and held apart with a clamp so that the atlanto-occipital ligament with the underlying dura mater was exposed and covered with isotonic saline. […]
# [6] = test system: cerebral blood flow around the middle cortical artery; test: Cortical blood flow, laser Doppler recording after topical CGRP; format: in vivo, rat
# Text: as §1, with “accordingly.” for “accordingly. In some experiments a third catheter was inserted into the exposed right external jugular vein and pushed forward close to the bifurcation of the subclavian and the internal jugular vein in order to take blood samples for measuring CGRP levels (Fig. 1A).”
# as §3
# [7] = Ex vivo permeance of the dura mater for CGRP (trepanned skull in glass well, EIA); format: in vitro ADME, rat
# Experimental: Each of the final CSF and plasma samples was processed using the EIA for human CGRP according to the instructions of the manufacturer (Bertin Pharma/SPIbio, Montigny le Bretonneux, France). The EIA is based on a double-antibody sandwich technique with monoclonal antibodies binding the CGRP molecule; the tracer antibody is conjugated with acetylcholine esterase converting Ellman’s reagent to a colour, the absorbance of which is measured by a photo-spectrometer (Opsys MR, Dynex Technologies, Denkendorf, Germany). The assay has full cross-reactivity also for rat CGRP with a difference in the range of the intra-assay variation and is detecting both α- and β-CGRP with the same sensitivity. For plasma samples 5 pg/mL is the lower limit of detection according to the manufacturer’s information. The CGRP concentrations in the original CSF and the plasma samples were calculated in pg/mL considering the added volume of EIA buffer.
# Animals were exposed to 5% isoflurane in a closed box administered with an evaporator, followed by intraperitoneal injection of 180 mg/kg sodium thiopental, which induced deep anaesthesia with a minimum of vital functions (slow and flat ventilation, slow heart rate). The head of the animals was fixed in a stereotactic frame, the skin of the head was incised in the sagittal line and the skin flaps extended. The parietal periosteum was removed with an electric coagulator and the parietal bone on both sides trepanned with a dental drill under liquid cooling until a thin layer of bone was left, which was carefully removed with a fine forceps without causing any lesion of the parietal dura mater. Then the animal was exsanguinated, the head was separated, skinned and freed from muscles as far as possible. The skull was cut horizontally in a plane below the temporal fossa separating the apical from the basal skull and the brain was carefully removed, so that the transparent dura mater of the trepanned parietal region was visible from inside the cranium. The cranium was washed in SIF for 30 min at room temperature. After checking with SIF that the dura mater spanning the parietal bone had no leak, the cranium was mounted in a glass well with the inner surface of the dura side up (Fig. 2A). The well was filled with 500 μL SIF, so that the outer side of the dura mater was diving into the solution. After 5 min the solutions were carefully removed without touching the tissue and were replaced by fresh SIF, which was again removed after 5 min. […]
# If at the same time point two samples of 25 μL CSF or plasma were collected and processed with the EIA, the two CGRP values were averaged prior to further calculations. Mean ± standard error of the mean (SEM) was calculated for corresponding data of repeated experiments. […]
# systemic blood pressure = test: Systemic blood pressure in the femoral artery after topical CGRP; format: in vivo, rat; conditions: topical application of CGRP 10 μM onto dura mater; repeated measures ANOVA p = 0.83
# Text: as §1, with “accordingly.” for “accordingly. In some experiments a third catheter was inserted into the exposed right external jugular vein and pushed forward close to the bifurcation of the subclavian and the internal jugular vein in order to take blood samples for measuring CGRP levels (Fig. 1A).”
# as §3
# [8] = CGRP 1 μM topically onto dura mater, 5 experiments
substance,measurement,setting,value
Calcitonin gene-related peptide [CGRP],Half-live of CGRP in circulating blood,[1],~10 min
same,CGRP plasma concentration (jugular),[2]; 5 min after application of CGRP 10 μM (40 μl) onto dura mater,108.3 ± 21.7 pg/mL
same,CGRP plasma concentration (jugular),"[2]; 15 min later, i.e. 20 min after application of CGRP 10 μM (40 μl) onto dura mater",135.2 ± 59.5 pg/mL
same,EC50,[3],0.1 to 1 nM
same,Vasodilatation of meningeal arteries,(rat) meningeal arteries,80%
same,Change in meningeal blood flow,[4]; [8],not followed by a change
same,Meningeal blood flow normalized to baseline,"[4]; CGRP 10 μM topically onto dura mater, within 5 min after application, baseline = minute prior to application, mean ± SEM, significant from the third minute",107.4 ± 3.8%
same,CGRP concentration in the last CSF sample,"[5]; 35 min after 40 μl human α-CGRP 10 μM in SIF applied onto exposed parietal dura mater, CSF from cisterna magna, anaesthetised Wistar rat, EIA, mean ± SEM, n = 10",191.5 ± 62.9 pg/mL
same,Increase of CGRP in the CSF compared to baseline,"[5]; 35 min after dural application of CGRP 10 μM, rat in vivo, EIA",three-fold increase
same,Measured CGRP concentration at the pial arteries below the dura (CSF),"[5]; after topical CGRP 10 μM onto dura mater, rat in vivo, EIA, range stated in the discussion",100 to 200 pg/mL
same,"Measured CGRP concentration at the pial arteries below the dura (CSF), molar","[5]; after topical CGRP 10 μM onto dura mater, rat in vivo, converted from pg/mL",20 to 40 pM
same,Change in cortical blood flow,[6]; [8],not followed by a change
same,"Cortical blood flow normalized to baseline, peak","[6]; CGRP 10 μM topically onto dura mater, within 5 min after application, mean ± SEM, not significantly different to baseline",102.6 ± 3.9%
same,CGRP level inside the skull (arachnoidal side) relative to level in the glass well (periostal side),"[7]; 1 nM CGRP applied on arachnoidal side, after 5 min, SIF pH 7.4, 500 μL well, n = 9, p < 0.001, decreasing difference after 15 min",more than double
same,Arachnoidal CGRP concentration relative to periostal CGRP concentration,"[7]; SIF and 1 pM CGRP applied on arachnoidal side, 5 and 15 min, room temperature SIF pH 7.4, n = 9, no significant differences",roughly half
same,Fraction of applied CGRP concentration measured in the bath solution outside,"[7]; after application of CGRP at 1 ng/mL (so in the source) on arachnoidal side, ex vivo rat dura",only a small fraction
same,Diffusion of CGRP through the dura mater into the glass well,"[7]; nanomolar (1 nM) CGRP on arachnoidal side, 5 and 15 min, n = 9",diffuse only slowly through the dura mater
same,Change in systemic blood pressure measured in the femoral artery,systemic blood pressure,did not lead to significant changes
